{
  "sequences": {"note": "Amino acid sequences for entries named in this document (tags omitted).", "UniProt P31645, whole entry, looked up": "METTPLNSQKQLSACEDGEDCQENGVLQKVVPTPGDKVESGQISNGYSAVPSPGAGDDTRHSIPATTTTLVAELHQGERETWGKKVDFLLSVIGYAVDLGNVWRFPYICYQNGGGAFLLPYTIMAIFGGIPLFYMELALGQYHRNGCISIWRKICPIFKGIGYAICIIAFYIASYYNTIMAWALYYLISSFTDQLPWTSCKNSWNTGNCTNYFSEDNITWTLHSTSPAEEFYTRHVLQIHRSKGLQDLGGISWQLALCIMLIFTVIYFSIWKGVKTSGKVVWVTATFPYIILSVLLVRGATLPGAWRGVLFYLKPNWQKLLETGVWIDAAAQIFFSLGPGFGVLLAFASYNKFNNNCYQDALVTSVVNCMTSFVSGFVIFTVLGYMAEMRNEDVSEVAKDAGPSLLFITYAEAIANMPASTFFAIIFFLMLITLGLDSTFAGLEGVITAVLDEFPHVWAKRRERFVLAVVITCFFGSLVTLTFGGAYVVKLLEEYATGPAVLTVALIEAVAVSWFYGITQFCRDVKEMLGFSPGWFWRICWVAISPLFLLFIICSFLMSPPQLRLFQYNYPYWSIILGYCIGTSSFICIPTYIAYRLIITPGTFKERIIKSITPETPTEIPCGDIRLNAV"},
  "source": "patent US12440489B2",
  "about": "(priority 2016, dated 2025)",
  "key": {"SERT": {"target": "SERT (Homo sapiens, UniProt P31645)", "assay": "Receptor binding, SERT"}, "5-HT2 receptor": {"test_system": "5-HT2 receptor", "assay": "DOI-induced head twitch model in mice", "assay_type": "in vivo"}},
  "data": [
    {"smiles": "O=C1CN2c3c(cccc3[C@@H]3CN(CCCC(O)c4ccc(F)cc4)CC[C@@H]32)N1", "note": "(stereo partly drawn)", "values": [
      {"measurement": "maximum inhibition SERT (in words)", "setting": "SERT", "result": "No inhibition"},
      {"measurement": "EC50 for reducing DOI-induced head twitches", "setting": "5-HT2 receptor; compound orally 0.5 hr before DOI s.c., twitches counted during 6 min", "result": "2.03 mg/kg, p.o."},
      {"measurement": "block of DOI head twitch (in words)", "setting": "5-HT2 receptor; oral", "result": "relatively inactive"}
    ]}
  ]
}
